# Values of other authors as cited in patent publication US8088918B2, “Noncardiotoxic pharmaceutical compounds” (Williamsburg Holdings LLC, priority 2004, dated 2012).
# Conditions: parent drugs; cited from earlier work
substance,measurement,value
oxybutynin,pKa,6.96
